Several values for one entry are separate records, joined by “and”; a condition that tells them apart may be missing. Equal values may be shown once. Read-outs that look alike come from different tables or passages of the source.
What was measured:
[1] = 25±2° C., 60±5% R.H., 0 months
[2] = Accelerated stability (ICH), 40±2° C. and 75±5% R.H.; type: physicochemical

Cysteamine Bitartrate [Example 4]
HPLC Related Substances %: Other impurities [1]: <0.002% and <0.05% and <0.02%
Loss on drying [1]: 0.04% and 0.15% and 0.23%
Loss on drying ([2]; 0 months): 0.04% and 0.15% and 0.23%
Loss on drying ([2]; 6 months): 0.13% and 0.09% and 0.04%
